Data on one compound can be found in US10138242B2, “Pyrazolopyridine derivatives and their use in therapy” (HELMHOLTZ ZENTRUM MUENCHEN—DEUTSCHES FORSCHUNGSZENTRUM FUER …, priority 2015, dated 2018).

In the assay the test system is T. brucei brucei bloodstream form parasites (strain Lister 427). Kind of assay: Antitrypanosomal activity assay (resazurin; FIG. 2). In kind it is cell-based. The conditions noted are these: 66 h + 6 h resazurin. On the procedure: (A) The trypanosoma cell count and growth were evaluated at different doses of compounds of the invention.
Antitrypanosomal activity was tested on T. brucei brucei bloodstream from parasites (strain—Lister 427, VATMITat 1.2). Stock solutions of compounds (50 mM) were prepared in DMSO. Two fold serial dilutions of each compound (10 wells in each row) were prepared in 96 well plates in HMI111 medium (100 μl/well; quadruplicates; cf. also Hirumi et al., J. Parasitol. 75 (1989), 985-989). One well without compound, and one well with media alone were included in each row. […] The plates were incubated for 66 hours at 37° C. in the incubator with 5% CO2. 20 μl resazurin (Sigma, 0.125 mg/ml in Hanks Balanced Salt Solution) was added to all wells and the plate was further incubated for 6 hours. Change in color of resazurin (blue to pink) by living cells was measured with a 96 well plate reader (excitation at 530 nm, emission at 585 nm, filter cut-off: 570 nm). Percent inhibition values were calculated by setting the well without compound to “0% inhibition”.
(The colour change of resazurin is a common sign of viable cells or microbes.)

One may read the IC50 as the concentration that inhibits the measured activity by half.

As to `COc1ccc2c(OC)ccc(CN3CCc4c(c(C(=O)NCc5cccc6ccccc56)nn4CCO)C3)c2c1` [Compound 111], the half-maximal inhibitory concentration (IC50) came out at 4.05 µM.
